We go through one substance from paper PMC11272584 (Nature Metabolism, 2024).

One experiment concerns the target T1, GIPR I378M (Homo sapiens, UniProt P48546, I378M).
T1 sequence (P48546 22-466 I378M): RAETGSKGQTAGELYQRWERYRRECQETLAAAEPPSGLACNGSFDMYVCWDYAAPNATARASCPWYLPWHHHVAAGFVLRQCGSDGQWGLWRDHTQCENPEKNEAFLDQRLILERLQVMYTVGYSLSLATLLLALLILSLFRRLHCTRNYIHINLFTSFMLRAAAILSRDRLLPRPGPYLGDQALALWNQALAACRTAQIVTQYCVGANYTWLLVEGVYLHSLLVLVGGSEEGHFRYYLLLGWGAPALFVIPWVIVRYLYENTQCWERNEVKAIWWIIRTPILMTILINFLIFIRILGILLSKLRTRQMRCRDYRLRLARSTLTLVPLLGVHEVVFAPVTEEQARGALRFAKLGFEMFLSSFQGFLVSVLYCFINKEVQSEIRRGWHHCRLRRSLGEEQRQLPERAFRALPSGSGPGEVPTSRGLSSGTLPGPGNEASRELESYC
Description: cAMP accumulation. Further details: host or cells: HEK293. The class given is cell-based. (Cyclic AMP is a second messenger, typically raised through Gs and lowered through Gi signalling.)

The next experiment concerns the target T2, GIPR E288G (Homo sapiens, UniProt P48546, E288G).
T2 sequence (P48546 22-466 E288G): T1 sequence (P48546 22-466 I378M) with E267G, M357I
The following applies: GIPR E288G (ECL2), mean, n = 5, duplicate.

Another experiment has as its target T3, GIPR W233* (Homo sapiens, UniProt P48546).
T3 construct: host or cells: HEK293
In words: cAMP accumulation. The experiment is classed as cell-based.

In another experiment the target is WT GIPR (Homo sapiens, UniProt P48546). The following applies: HEK293A, 1 µM GIP minus vehicle, n = 8, P = 0.00019.
For a further experiment, the target named is T4, GIPR R164W (Homo sapiens, UniProt P48546, R164W).
T4 construct: host or cells: HEK293
In words: cAMP accumulation. The experiment is classed as cell-based.

For a further experiment, the target named is T5, GIPR T116R (Homo sapiens, UniProt P48546, T116R).
T5 sequence (P48546 22-466 T116R): T1 sequence (P48546 22-466 I378M) with T95R, M357I
Description: cAMP accumulation. The experiment is classed as cell-based. Further details: host or cells: HEK293.

The target of a further experiment is T6, GIPR R336P (Homo sapiens, UniProt P48546, R336P).
T6 sequence (P48546 22-466 R336P): T1 sequence (P48546 22-466 I378M) with R315P, M357I
The following applies: GIPR R336P (6.35), mean, n = 4, duplicate.

The next experiment has as its target T7, GIPR A207V (Homo sapiens, UniProt P48546, A207V).
T7 sequence (P48546 22-466 A207V): T1 sequence (P48546 22-466 I378M) with A186V, M357I
The following applies: GIPR A207V (ECL1), mean, n = 4, duplicate.

The mark [1] stands for this setting: HEK293, GIP(1–42) 1 pM–100 nM, 30 min 37 °C, mean of n = 3.
The mark [2] stands for this setting: HEK293, Hill slope 1.0, mean of n = 3.

Numbering of substitutions follows the chain as printed.

Consider “glucose-dependent insulinotropic polypeptide [GIP]”, for which the cAMP production class result at GIPR I378M was “WT-like cAMP production”. Moreover, the “cAMP (Emax)” value on GIPR I378M (setting [1]) is on record as 78 % of WT GIPR activity; on GIPR W233* (setting [1]), 86 % of WT GIPR activity; at GIPR R164W (HEK293, GIP(1–42) 1 pM–100 nM, 30 min 37 °C, mean of n = 4) it was 9 % of WT GIPR activity. Also, the “logEC50 (cAMP)” value on GIPR I378M (setting [2]) is listed as -11.1; at GIPR W233* (setting [2]), -8.8; on GIPR R164W (HEK293, Hill slope 1.0, mean of n = 4) it was -8.4. Further, the “logEC50 (Arrestin)” value at GIPR E288G (Hill slope 1.0) is given as -9.1; at GIPR R336P (Hill slope 1.0) it was -8.8; on GIPR A207V (Hill slope 1.0), -9.4. For the same substance, the entries for the “Arrestin (Emax)” value on GIPR E288G (normalized to WT GIPR), on GIPR R336P (normalized to WT GIPR) and at GIPR A207V (normalized to WT GIPR) were 9, 21 and 83, respectively. Moreover, on WT GIPR, the “Mean of ΔBRET” value came to 0.1015. Also, the “cAMP signalling up to 100 nM GIP” value on GIPR T116R is reported as “unable to signal”.
